# The list shows a part of the results, in another mix than the full data. Records with an inconclusive call do not appear. The source made the active and inactive calls. The call rests on the fitted dose curve; in most records, active means well fitted inhibition curve with a large enough effect; inconclusive means small, poorly fitted or top-dose-only effect, or effect the other way; inactive means flat fitted curve, though single readings scatter.
# By UniProt entry, the sequences of proteins in these tests, tags left out. Where a name states a change or a piece, a line headed by the entry shows the natural chain unless it says otherwise.
# UniProt A8B2U2: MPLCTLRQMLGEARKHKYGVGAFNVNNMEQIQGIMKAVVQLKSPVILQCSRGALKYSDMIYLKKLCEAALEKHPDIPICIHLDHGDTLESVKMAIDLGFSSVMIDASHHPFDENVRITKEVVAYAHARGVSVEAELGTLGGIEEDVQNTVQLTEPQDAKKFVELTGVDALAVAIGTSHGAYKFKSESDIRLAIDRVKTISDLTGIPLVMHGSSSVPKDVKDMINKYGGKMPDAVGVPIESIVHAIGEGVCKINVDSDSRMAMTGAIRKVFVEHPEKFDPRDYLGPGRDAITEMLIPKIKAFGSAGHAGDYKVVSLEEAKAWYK
# Target: Fructose-bisphosphate aldolase (Giardia intestinalis (strain ATCC 50803 / WB clone C6)) (UniProt A8B2U2)
# Test: qHTS Assay for Inhibitors of Fructose-1,6-bisphosphate Aldolase from Giardia Lamblia; further: nearly all actives have a fitted effect of over 55% in size
# Details: purified Giardia FBPA; series mostly up to 59.6 µM; activity, negative = inhibition: at the top concentration
# On the % scale 0 is the no-effect control and ±100 the full control effect; potency means the concentration at half of the fitted maximal effect.
Compound,"activity, negative = inhibition",Potency
CN(C)C1(CNC(=O)c2ccc(S(C)(=O)=O)cc2)CCCCC1,inactive: -0.984%,
CC1CCC(C(C)C)C(OP(=O)(Nc2ccccn2)c2ccccc2)C1 (configuration not stated),inactive: 7.78%,
Cc1ccc(C(=O)OC2CN3CCC2CC3)cc1 (configuration not stated),inactive: 5.72%,
Cc1nn(-c2ccccc2)c2c1P(=O)(N1CCOCC1)N(C)C(c1ccccc1)=N2 (configuration not stated),inactive: 5.37%,
O=P1(Nc2ccc(Br)cn2)COc2ccccc2OC1,inactive: 3.03%,
Cc1ccc(OCC(=O)OC2CN3CCC2CC3)cc1 (configuration not stated),inactive: 1.78%,
O=[As](O)(c1cccs1)c1cccs1,inactive: 0.656%,
Nc1cccc([As](=O)(O)c2ccccc2)c1,inactive: 3.73%,
O=P1(Nc2ncccn2)COc2ccccc2OC1,inactive: 2.48%,
Nc1ccccc1[As](=O)(O)c1ccccc1,inactive: -0.559%,
O=C(O)COc1ccc([As](=O)(O)O)cc1[N+](=O)[O-],inactive: -8.45%,
CS(=O)(=O)c1cc([N+](=O)[O-])c2no[n+]([O-])c2c1,,active: 11200 nM
O=P(Nc1nccs1)(c1ccccc1)c1nc2ccccc2s1 (configuration not stated),,active: 2810 nM
O=P(Nc1nccs1)(Oc1ccccc1)Oc1ccccc1,inactive: 12.8%,
CCOP1(=S)c2c(C)nn(CCC#N)c2N=C(c2ccccc2F)N1C (configuration not stated),inactive: 1.39%,
O=[N+]([O-])c1ccc2c(c1)nnn2O,inactive: 11.9%,
CCOP1(=S)c2c(C)nn(CCC#N)c2N=C(c2ccc(F)cc2)N1C (configuration not stated),inactive: -1.15%,
CN(C(=O)Cc1ccccc1)[C@@H]1CC[C@]2(CCCO2)C[C@H]1N1CCCC1,,inactive
O=[N+]([O-])CC(O)c1ccc([N+](=O)[O-])cc1 (configuration not stated),inactive: -2.15%,

Compound,"activity, negative = inhibition",Potency
O=[As](O)(c1cccc(O)c1)c1cccc(O)c1,inactive: 1.44%,
Cc1cccc(OCC(=O)OC2CN3CCC2CC3)c1 (configuration not stated),inactive: -6.65%,
COc1cc(C(=O)NCC2(N3CCOCC3)CCCCC2)cc(Cl)c1OC(C)C,inactive: -14.9%,
O=[As](O)(O)c1cccnc1,inactive: -2.22%,
CN(C(=O)Cc1ccc(Cl)c(Cl)c1)[C@@H]1CC[C@]2(CCCO2)C[C@H]1N1CCCC1,inactive: 3.07%,
O=C(OC1CN2CCC1CC2)c1ccc(Cl)cc1 (configuration not stated),inactive: 0.264%,
CCOP(=O)(Nc1cccc2ccccc12)OCC,inactive: 0.0526%,
COc1cc(C2NCCC3(OCCO3)C2(C)C)cc(OC)c1OC (configuration not stated),inactive: 7.13%,
CCCOP(=S)(Nc1nc(N)cc(=O)[nH]1)OCCC,,active: 3160 nM
Cc1ccc(NCCc2c([N+](=O)[O-])cc([N+](=O)[O-])cc2[N+](=O)[O-])cc1,inactive: -27.7%,
COc1cc(I)ccc1[As](=O)(O)O,inactive: 4.9%,
COc1ccc2nc(NP(=O)(c3ccccc3)c3ccccc3)sc2c1,inactive: 0.251%,
Cc1cc(=O)[nH]c(N[N+](=O)[O-])n1,inactive: 3.08%,
O=C(OC1CN2CCC1CC2)C12CC3CC(CC(C3)C1)C2 (configuration not stated),inactive: -4.74%,
Cc1c2c(nc3ccccc13)SC(C(Cl)Cl)C2 (configuration not stated),inactive: 8.21%,
COc1ccc(N/C(=N/P(=O)(N2CCOCC2)N2CCOCC2)N2CCOCC2)cc1,inactive: 2.1%,
Cc1ccc2nc3c(c(C)c2c1)CC(C(Cl)Cl)S3 (configuration not stated),inactive: -9.93%,
Cc1ccc(OP(=O)(Nc2ccc([N+](=O)[O-])cn2)Oc2ccc(C)cc2)cc1,inactive: 1.66%,
C[As](=O)(O)c1cccc(C(=O)O)c1,inactive: 1.63%,

Compound,"activity, negative = inhibition",Potency
O=[As](O)(c1ccc(O)cc1)c1ccccc1O,inactive: -4.12%,
O=[N+]([O-])c1cc([N+](=O)[O-])c(-c2ccn[nH]2)s1,inactive: -14.2%,
CCN(CC)C(=S)SC(NC=O)C(Cl)(Cl)Cl (configuration not stated),inactive: -8.16%,
CC(C)NC(=O)NP(=O)(Oc1ccccc1)Oc1ccccc1,inactive: 5.38%,
CC(C)c1ccc(OP(=O)(Nc2ccccn2)Oc2ccccc2F)cc1 (configuration not stated),inactive: -0.591%,
ClCCSc1nnc(-c2cccnc2)o1,inactive: 3.05%,
Cc1cc(SC(NC(=O)c2ccccc2)C(Cl)(Cl)Cl)nc(C(C)C)n1 (configuration not stated),inactive: 2.68%,
CCCCOc1ccc(C(=O)NCC2(N3CCCCC3)CCCCC2)cc1OC,inactive: 10.1%,
CCOC(=O)Nc1ccc([As](=O)(O)O)c(O)c1,inactive: -4.54%,
O=[N+]([O-])c1ccc(Nc2ccc(Oc3ccc([N+](=O)[O-])cc3[N+](=O)[O-])cc2)c([N+](=O)[O-])c1,inactive: 3.96%,
O=P(Nc1ccccn1)(c1cccc2ccccc12)c1cccc2ccccc12,inactive: -4.57%,
Cc1cc(SC(NC=O)C(Cl)(Cl)Cl)ncn1 (configuration not stated),,active: 1770 nM
CCOC(=O)Nc1cccc([As](=O)(O)O)c1,inactive: 3.56%,
O=C(Nc1ccncc1[N+](=O)[O-])c1ccc([N+](=O)[O-])cc1[N+](=O)[O-],inactive: -12.8%,
O=C(COc1ccccc1)OC1CN2CCC1CC2 (configuration not stated),inactive: -0.565%,
COP1(=S)c2c(C)nn(CCC#N)c2N=C(c2ccc(F)cc2)N1C (configuration not stated),inactive: -0.921%,
CCC(C)N(CC(C)C)C(=S)SC(NC(C)=O)C(Cl)(Cl)Cl (configuration not stated),inactive: -1.31%,
CCOC(=O)c1ccc(NC(=O)C(C)(CCl)SC)cc1 (configuration not stated),inactive: -9.03%,
O=C(OC1CN2CCC1CC2)c1cccc([N+](=O)[O-])c1 (configuration not stated),inactive: 1.54%,

# From PubChem BioAssay AID2451 (National Center for Advancing Translational Sciences (NCATS), 2010)
